Patent US8071600B2, “Derivatives of 4-piperazin-1-yl-4-benzo[B]thiophene suitable for the treatment of CNS disorders” (Otsuka Pharmaceutical Co., Ltd., priority 2005, dated 2011)

By UniProt entry, the sequences of proteins in these tests, tags left out.
UniProt P61169, whole entry: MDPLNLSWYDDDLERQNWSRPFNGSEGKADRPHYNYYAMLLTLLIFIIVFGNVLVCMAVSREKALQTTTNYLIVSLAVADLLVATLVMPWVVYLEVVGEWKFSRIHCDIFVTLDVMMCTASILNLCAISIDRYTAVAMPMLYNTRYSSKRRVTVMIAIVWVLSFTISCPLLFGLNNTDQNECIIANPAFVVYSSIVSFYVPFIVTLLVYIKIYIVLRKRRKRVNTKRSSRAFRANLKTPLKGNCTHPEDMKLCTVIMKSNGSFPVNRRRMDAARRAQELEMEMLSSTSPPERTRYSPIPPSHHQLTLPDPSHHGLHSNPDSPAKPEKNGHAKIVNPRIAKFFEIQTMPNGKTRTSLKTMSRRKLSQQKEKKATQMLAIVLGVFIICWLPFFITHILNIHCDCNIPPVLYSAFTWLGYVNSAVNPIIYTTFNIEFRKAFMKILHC
UniProt P14842, whole entry: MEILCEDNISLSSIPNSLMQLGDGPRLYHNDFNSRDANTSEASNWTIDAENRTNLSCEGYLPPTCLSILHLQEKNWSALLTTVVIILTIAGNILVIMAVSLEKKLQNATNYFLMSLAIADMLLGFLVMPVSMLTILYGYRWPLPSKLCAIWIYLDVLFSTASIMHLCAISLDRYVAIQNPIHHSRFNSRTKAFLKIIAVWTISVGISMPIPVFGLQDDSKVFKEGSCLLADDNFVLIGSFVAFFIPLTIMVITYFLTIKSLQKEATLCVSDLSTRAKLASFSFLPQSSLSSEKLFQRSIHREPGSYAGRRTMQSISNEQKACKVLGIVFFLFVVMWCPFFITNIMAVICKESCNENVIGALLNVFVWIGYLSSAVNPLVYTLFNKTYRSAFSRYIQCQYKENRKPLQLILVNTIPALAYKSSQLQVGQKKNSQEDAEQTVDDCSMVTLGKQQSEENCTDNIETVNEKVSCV

Tests used:
Dopamine D2 receptor = Dopamine D2 receptor (Rattus norvegicus, UniProt P61169); assay: Dopamine D2 receptor binding assay ([3H]-raclopride); settings: Dopamine D2 receptor binding test, rat corpus striatum membrane, Ki calculated from IC50 by Cheng-Prussoff formula
Experimental: 1) Dopamine D2 Receptor Binding Assay
The assay was performed according to the method by Kohler et al. (Kohler C, Hall H, Ogren S O and Gawell L, Specific in vitro and in vivo binding of 3H-raclopride. A potent substituted benzamide drug with high affinity for dopamine D-2 receptors in the rat brain. Biochem. Pharmacol., 1985; 34: 2251-2259).
Wistar male rats were decapitated, the brain was retrieved immediately and corpus striatum was taken out. […]
The binding assay was performed using 40 μl of the membrane specimen, 20 μl of [^3H]-raclopride (final concentration 1 to 2 nM), 20 μl of a test drug and 50 mM Tris-hydrochloric acid buffer (containing 120 mM NaCl, 5 mM KCl, 2 mM CaCl2, 1 mM MgCl2, pH 7.4) so that the total amount was 200 μl (final dimethylsulfoxide concentration 1%). […] The filter plate made of glass fiber was washed with 50 mM Tris-hydrochloric acid buffer (pH 7.4), and after dried, a microplate liquid scintillation cocktail was added and the radioactivity was measured with a microplate scintillation counter. Radioactivity in the presence of 10 μM (+)-butaclamol hydrochloride was assumed as nonspecific binding.
(§1) IC50 value was calculated from concentration-dependent reaction using a non-linear analysis program. Ki value was calculated from IC50 value using Cheng-Prussoff formula.

[1] = biological target: Serotonin 5-HT2A receptor (Rattus norvegicus, UniProt P14842); assay: Serotonin 5-HT2A receptor binding assay ([3H]-Ketanserin); settings: Serotonin 5-HT2A receptor binding test, rat frontal cortex membrane, Ki calculated from IC50 by Cheng-Prussoff formula
Experimental: 2) Serotonin 5-HT2A Receptor Binding Assay
The assay was performed according to the method by Leysen J E et al. (Leysen J E, Niemegeers C J E, Van Nueten J M and Laduron P M. [3H] Ketanserin (R 41 468), a selective 3H-ligand for serotonin 2 receptor binding sites. Mol. Pharmacol., 1982, 21: 301-314).
Wistar male rats were decapitated, the brain was retrieved immediately and frontal cortex was taken out. It was homogenized in 0.25 M sucrose of a volume 10 times of the weight of the tissue using a Teflon glass homogenizer, and centrifuged at 4° C., 1,000×g for 10 minutes. The obtained supernatant was transferred to another centrifuge tube and suspended in 0.25 M sucrose of a volume 5 times of the weight of the tissue and the precipitate was centrifuged in the above-described condition. […]
The filter plate made of glass fiber was washed with 50 mM Tris-hydrochloric acid buffer (pH 7.4), and after dried, a microplate liquid scintillation cocktail was added and the radioactivity was measured with a microplate scintillation counter. Radioactivity in the presence of 10 μM spiperone was assumed as nonspecific binding.
as §1

For CN1CCC(c2ccc(OCCCN3CCN(c4cccc5sccc45)CC3)cc2)CC1, the Ki (Dopamine D2 receptor) was 0.4 nM and the Ki [1] was 1.7 nM.
